The values that follow come from patent US8999957B2, “Heterocyclic compounds as ERK inhibitors” (Merck Sharp & Dohme Corp., priority 2010, dated 2015).

Sequences of proteins named here, by UniProt entry; tags and fusion partners are left off.
UniProt P63085, whole entry: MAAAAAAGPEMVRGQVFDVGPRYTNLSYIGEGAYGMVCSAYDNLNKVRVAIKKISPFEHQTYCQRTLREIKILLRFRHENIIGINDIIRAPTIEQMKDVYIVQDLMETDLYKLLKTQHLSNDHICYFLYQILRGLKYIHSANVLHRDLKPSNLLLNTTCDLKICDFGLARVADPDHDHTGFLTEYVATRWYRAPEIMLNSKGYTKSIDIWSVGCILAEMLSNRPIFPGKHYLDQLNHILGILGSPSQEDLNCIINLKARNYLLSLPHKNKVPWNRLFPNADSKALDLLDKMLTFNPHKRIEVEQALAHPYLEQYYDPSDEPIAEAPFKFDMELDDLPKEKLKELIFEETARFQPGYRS

This assay has as its target fully phosphorylated, active Mouse ERK2 protein (Mus musculus (Mouse), UniProt P63085). The assay can be described thus: Active ERK2 (aERK) IMAP assay, condition 1. The settings on record: read-out: aERK IC50; aERK assay condition 1, 30 μM ATP.

Take `COc1cccc(F)c1CN1C[C@@H](NC(=O)c2ccc3[nH]nc(-c4ccc5nn(C)cc5c4)c3c2)C[C@@H](C(F)(F)F)C1`: the IC50 (as a rule, the point on the concentration scale where inhibition reaches its midpoint) stood at 810 nM.
